For the assay, the system named is nitric oxide (NO) production in A549 cells. The note with it: treatment for 3 passages, without viral infection.

Take `C[C@@H]1OC([C@]2(O)[C@H](O[C@@H]3O[C@H](CO)[C@H](O)[C@H](O)[C@H]3O)[C@@H](CO)OC(O)[C@@H]2O)[C@@H](O)[C@H](O)[C@@H]1O` (stereo partly shown): the “effect on the concentration of NO continuously produced by cells” value is given as “no effect”.

These data come from patent US11980632B2 (priority 2020, dated 2024).
